Antibody variant affinities, Ab-14 light chain, assay B

All variants were tested on one target, the spike HR2 peptide PDVDLGDISGINAS (SARS-CoV-2).

The variants keep the heavy chain, the linker and the frameworks of Ab-14 (scFv order VH, a 15-residue (Gly4Ser)3 linker, VL).
VH: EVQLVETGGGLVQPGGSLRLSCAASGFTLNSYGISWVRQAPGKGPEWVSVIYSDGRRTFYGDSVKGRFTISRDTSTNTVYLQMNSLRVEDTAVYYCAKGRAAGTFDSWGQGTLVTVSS
VL: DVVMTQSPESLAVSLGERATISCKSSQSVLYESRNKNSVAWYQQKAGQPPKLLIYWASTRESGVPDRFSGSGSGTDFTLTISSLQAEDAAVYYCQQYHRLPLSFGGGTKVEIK

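The parent was found by panning a naive human phage display library on the peptide. This is the validation round: designs drawn from the data on random variants, tested in the same kind of assay. Group labels follow the data file (Ctrl: baseline library sampled from a position-specific scoring matrix, with some repeated check sequences; Rand: our label for a block that the file lists under HC and that is probably the random mutants of the ten best first-round binders; En: ensemble of fine-tuned language models; GP: Gaussian process model; HC: hill climbing; Gen: genetic algorithm; Gibbs: Gibbs sampling; a sequence that several methods proposed may carry one label only). In AlphaSeq, yeast of one mating type display the scFv and yeast of the other type display the target. Mating (16 h, 30 °C) was followed by selection of diploids and sequencing of their barcodes. A regression on co-assayed BCL2-family reference pairs converts the normalised counts of each replicate to an apparent Kd. Each pool was mated in six replicate cultures.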

The parent's light chain CDRs are KSSQSVLYESRNKNSVA, WASTRES, QQYHRLPLS; each variant's own CDRs replace them letter for letter.
Scale: log10 of Kd in nM, estimated from mating counts; low values are strong binders.
Replicates are averaged; those with no signal do not enter the mean.
Where no diploid with the target was found in any replicate, the entry reads "nd": below detection, most likely a poor binder, though not proof of it.
The list is sorted by this average, lowest first, undetected variants last.
A sequence measured in both rounds can read differently, since the two assays cover different ranges.
Of ten entries with the parent sequence, four were seen in most replicates (averages 0.34 to 2.37), three in one and three in none, so single entries are noisy.
The authors averaged sequences with at least three values out of six and counted those with two or fewer as poor binders.
Nonspecific signal, from three strains lacking the peptide, appeared in 4% of pairings of all light chain designs, centred on 2.64 (5% of these signals below 1.59); values are not corrected for it.

-0.78 (6 of 6 replicates) for KFEQLWMYEQRNKNSVA / NASQRED / QQYHRLPLS [GP_Gibbs].
-0.49 (6 of 6 replicates) for QLSQSVLYESRNKNSVA / GASTRES / QQYHRLPLS [GP_Gen].
-0.37 (6 of 6 replicates) for KLSYSELYEDRNKNSVA / NASQREQ / QQYHRLPLS [GP_Gibbs].
-0.37 (6 of 6 replicates) for KLSQSVDYESRNKNSVA / NASTREQ / QQYHRLPLS [GP_Gen].
-0.35 (6 of 6 replicates) for KFFQSVLYEQRNQNNVA / SASTREN / QQYHRLPLS [GP_Gibbs].
-0.34 (6 of 6 replicates) for KLSGSHLYESRNKNSVA / DASTRES / QQYHRLPLS [GP_Gen].
-0.34 (6 of 6 replicates) for KLSQSVLYESRNKNSVA / NASTREK / QQYHRLPLS [GP_Gen].
-0.26 (6 of 6 replicates) for KLSQSVLYESRNKNSVA / DASTRES / QDYHRLPLS [GP_Gen].
-0.24 (6 of 6 replicates) for KLPQSVWYESRNKNSVA / NASTREQ / QQYHRLPLS [GP_Gen].
-0.13 (6 of 6 replicates) for KVSQSVLYESRNKNSVA / NASTREQ / QQYHRLPLS [GP_Gen].
-0.12 (6 of 6 replicates) for KLPMATMVEMVSKNNVA / ELSTRGS / QQYNRLPLS [En_HC].
-0.09 (6 of 6 replicates) for KLRQLSHIESFNKNNVA / EMTTRES / QSYDRLPLS [En_HC].
-0.07 (6 of 6 replicates) for KFSQWMLYESRTKNSVA / DASTRES / QQYHRLPLS [GP_HC].
-0.06 (6 of 6 replicates) for KSQQSVLYESRNQNNVA / HASTRED / QQYHRLPLS [GP_HC].
-0.03 (6 of 6 replicates) for KSSQSFLYESRNKNSVA / GASTRES / QSYHRLPLS [GP_HC].
-0.02 (6 of 6 replicates) for KQSQSYGYESRNKNSVA / GASTRES / QQYHRLPLS [GP_HC].
-0.01 (6 of 6 replicates) for KISCAVYYGDRNKMSVA / DASTRES / QQYHRLPLS [GP_Gibbs].
-0.01 (6 of 6 replicates) for KQSQSVLYESVNKNSVA / DASTRLS / QQYHRLPLS [GP_HC].
0.05 (6 of 6 replicates) for KLYQSQLYESRNKNSVA / QASTRES / QQYHRLPLS [GP_Gen].
0.08 (6 of 6 replicates) for KLFQSYEYESRNKNSVA / NASQREC / QQYHRLPLS [GP_Gibbs].
0.09 (6 of 6 replicates) for KSVQSVLYESRNKNSVA / GASTREQ / QQYHRLPLS [Ctrl].
0.13 (6 of 6 replicates) for KLSQQMEYESRNHNNVA / AASTRED / QQYHRLPLS [GP_Gibbs].
0.17 (6 of 6 replicates) for HLSQSVWQESRNKNSVA / NASQRER / QQYHRLPLS [GP_Gibbs].
0.35 (6 of 6 replicates) for KIHQSDLYEDRNINSVA / SASQRSS / QQYHRLPLS [GP_Gibbs].
0.40 (6 of 6 replicates) for KFVQSHDYESRNKNNVA / QASQREQ / QQYHRLPLS [GP_Gibbs].
0.49 (6 of 6 replicates) for HLGGIMTWESKAKNSVA / QSNTRAE / QQYHRLPLS [En_HC].
0.55 (6 of 6 replicates) for KLQNFSQEDNKMWNNIA / DMTMVHT / QQYNRLPLE [En_Gibbs].
0.55 (6 of 6 replicates) for MMSQVTGMETRQRNNVA / QTSTREA / QQYDRLPLI [En_Gen].
0.58 (6 of 6 replicates) for KSLQSQDYESRNKNSVA / HASTRED / QQYHRLPLS [GP_HC].
0.82 (6 of 6 replicates) for MISDLMLYGARNKNPIA / NASTREY / QQYHRLPLS [En_HC].
0.91 (6 of 6 replicates) for ALALTLHQVDSQMNNIA / EGMLRES / QQYNRLPLG [En_Gibbs].
0.92 (6 of 6 replicates) for KYSQSQLYEDRMVNSVA / NASQREE / QQYHRLPLS [GP_Gibbs].
1.04 (6 of 6 replicates) for KSSQSLVGESRNKNSVA / TASTRES / QQYHRLPLS [Ctrl].
1.04 (6 of 6 replicates) for ESSQSVLYESMNQNSVA / SASTREE / QQYHRLPLS [Ctrl].
1.12 (6 of 6 replicates) for KLSQTSGMEHVNRNSVA / ELVTRMS / QQYNRLPLS [En_Gen].
1.14 (6 of 6 replicates) for KSSQSVGYESRNKNNVA / WASTRHS / QQYFRLPLS [Ctrl].
1.40 (6 of 6 replicates) for KFNMEVQGQNNNKYNIA / AAHQLEY / QTYYRLPLV [En_Gibbs].
1.44 (6 of 6 replicates) for KSGQGVLYESRNQNSVA / GASTEES / QQYHRLPLS [Rand].
1.56 (6 of 6 replicates) for KSDQSVLPESRNKNSVA / KASTRES / QQYHRLPGS [Ctrl].
1.60 (5 of 6 replicates) for TLSQSMDMTSRNKNSVA / DLSTREN / QQYHRLPLS [En_HC].
1.68 (6 of 6 replicates) for KIDQSVLYESRNKNSVA / WASMRES / QQYHRLPLS [Ctrl].
1.69 (3 of 6 replicates) for KISYQYRFEQLSKSNIA / EVVTRLK / QQYHRLPLS [En_HC].
1.77 (6 of 6 replicates) for ILSQMLLTAGNKHSSVA / QANNRES / QQYHRLPLS [En_HC].
1.97 (2 of 6 replicates) for MISDMGLHDSRLQDSVA / NNSTREA / QQYDRLPLS [En_HC].
1.99 (6 of 6 replicates) for MISQLYNMGSFAINSVA / QASYRNE / QQYDRLPLM [En_Gen].
2.07 (2 of 6 replicates) for KLRQSTVIEQFNKNNVA / EMTTRES / QSYDRLPLS [En_HC].
2.11 (6 of 6 replicates) for KQQFSGMMGSRNKNSVA / SASKRES / QQYHRLPLS [GP_Gibbs].
2.16 (2 of 6 replicates) for KLRQVMHIESFNKNNVA / EMTTRES / QSYDRLPLS [En_HC].
2.30 (2 of 6 replicates) for TLGAATLEESRNKNSVA / EMSMREN / QSYNRLPLS [En_HC].
2.75 (4 of 6 replicates) for KSSQGLLYESRNKNSVA / WASTRES / QTYHRLPLS [Ctrl].
nd (0 of 6 replicates) for ASSQSVLYESRNKNSVA / HIGERES / QQYHRWPLS [Ctrl].
nd (0 of 6 replicates) for KSSQSVLYESRNKNSVA / DASTRES / QQYHRLPPS [Ctrl].

For reference, 7 entries of the list once more:

With KSDQSVLPESRNKNSVA / KASTRES / QQYHRLPGS [Ctrl] the result was 1.56 (6 of 6 replicates).
With KLSQSVLYESRNKNSVA / NASTREK / QQYHRLPLS [GP_Gen] the result was -0.34 (6 of 6 replicates).
With KSLQSQDYESRNKNSVA / HASTRED / QQYHRLPLS [GP_HC] the result was 0.58 (6 of 6 replicates).
With KLSQSVLYESRNKNSVA / DASTRES / QDYHRLPLS [GP_Gen] the result was -0.26 (6 of 6 replicates).
With KFEQLWMYEQRNKNSVA / NASQRED / QQYHRLPLS [GP_Gibbs] the result was -0.78 (6 of 6 replicates).
With QLSQSVLYESRNKNSVA / GASTRES / QQYHRLPLS [GP_Gen] the result was -0.49 (6 of 6 replicates).
With KFNMEVQGQNNNKYNIA / AAHQLEY / QTYYRLPLV [En_Gibbs] the result was 1.40 (6 of 6 replicates).

Reference: Li et al. 2023, doi:10.1038/s41467-023-39022-2. File: FLAb, binding data.